Measured values: patent US10961189B2, “Spiro-lactam NMDA receptor modulators and uses thereof” (Aptinyx Inc., priority 2016, dated 2021)

Sequences of proteins named here, by UniProt entry; tags and fusion partners are left off. Residues count along the entry.
UniProt Q12879, 23-1464 limits assumed: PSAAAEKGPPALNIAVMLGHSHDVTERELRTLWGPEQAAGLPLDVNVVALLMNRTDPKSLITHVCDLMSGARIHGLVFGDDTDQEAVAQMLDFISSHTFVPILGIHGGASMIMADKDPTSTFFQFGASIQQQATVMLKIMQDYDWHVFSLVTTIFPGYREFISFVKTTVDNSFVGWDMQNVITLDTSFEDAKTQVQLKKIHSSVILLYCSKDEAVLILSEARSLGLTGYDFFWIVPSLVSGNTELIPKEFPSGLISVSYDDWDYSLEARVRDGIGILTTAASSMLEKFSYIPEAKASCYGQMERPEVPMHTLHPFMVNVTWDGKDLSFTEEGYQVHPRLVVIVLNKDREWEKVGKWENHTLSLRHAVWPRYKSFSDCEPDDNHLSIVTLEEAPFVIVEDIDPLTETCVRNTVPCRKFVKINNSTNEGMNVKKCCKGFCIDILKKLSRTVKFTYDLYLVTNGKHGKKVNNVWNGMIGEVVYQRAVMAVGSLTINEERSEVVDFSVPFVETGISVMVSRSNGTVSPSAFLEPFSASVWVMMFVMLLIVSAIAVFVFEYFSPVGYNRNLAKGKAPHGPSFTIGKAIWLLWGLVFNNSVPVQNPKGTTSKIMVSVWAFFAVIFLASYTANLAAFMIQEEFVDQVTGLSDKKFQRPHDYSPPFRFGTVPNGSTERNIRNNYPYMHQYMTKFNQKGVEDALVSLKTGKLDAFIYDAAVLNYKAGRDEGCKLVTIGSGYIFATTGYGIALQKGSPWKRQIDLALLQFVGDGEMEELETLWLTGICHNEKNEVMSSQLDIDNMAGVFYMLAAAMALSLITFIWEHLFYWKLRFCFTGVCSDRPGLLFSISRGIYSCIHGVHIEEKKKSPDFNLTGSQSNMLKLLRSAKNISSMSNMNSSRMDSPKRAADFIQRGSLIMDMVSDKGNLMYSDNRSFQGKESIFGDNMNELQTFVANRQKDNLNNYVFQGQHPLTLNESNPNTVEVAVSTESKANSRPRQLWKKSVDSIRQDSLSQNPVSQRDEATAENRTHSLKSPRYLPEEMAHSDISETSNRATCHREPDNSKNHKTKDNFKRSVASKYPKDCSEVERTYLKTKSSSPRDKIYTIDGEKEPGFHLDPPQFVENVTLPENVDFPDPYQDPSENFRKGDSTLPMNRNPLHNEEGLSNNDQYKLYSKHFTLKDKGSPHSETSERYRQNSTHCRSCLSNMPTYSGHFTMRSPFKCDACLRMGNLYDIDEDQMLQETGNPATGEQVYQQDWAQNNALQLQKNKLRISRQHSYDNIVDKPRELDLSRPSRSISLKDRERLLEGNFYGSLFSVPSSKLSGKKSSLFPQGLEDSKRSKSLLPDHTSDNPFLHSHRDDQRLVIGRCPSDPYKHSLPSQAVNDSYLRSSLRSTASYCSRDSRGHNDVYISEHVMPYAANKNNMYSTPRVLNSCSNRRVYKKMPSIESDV
UniProt Q13224, 27-1484 limits assumed: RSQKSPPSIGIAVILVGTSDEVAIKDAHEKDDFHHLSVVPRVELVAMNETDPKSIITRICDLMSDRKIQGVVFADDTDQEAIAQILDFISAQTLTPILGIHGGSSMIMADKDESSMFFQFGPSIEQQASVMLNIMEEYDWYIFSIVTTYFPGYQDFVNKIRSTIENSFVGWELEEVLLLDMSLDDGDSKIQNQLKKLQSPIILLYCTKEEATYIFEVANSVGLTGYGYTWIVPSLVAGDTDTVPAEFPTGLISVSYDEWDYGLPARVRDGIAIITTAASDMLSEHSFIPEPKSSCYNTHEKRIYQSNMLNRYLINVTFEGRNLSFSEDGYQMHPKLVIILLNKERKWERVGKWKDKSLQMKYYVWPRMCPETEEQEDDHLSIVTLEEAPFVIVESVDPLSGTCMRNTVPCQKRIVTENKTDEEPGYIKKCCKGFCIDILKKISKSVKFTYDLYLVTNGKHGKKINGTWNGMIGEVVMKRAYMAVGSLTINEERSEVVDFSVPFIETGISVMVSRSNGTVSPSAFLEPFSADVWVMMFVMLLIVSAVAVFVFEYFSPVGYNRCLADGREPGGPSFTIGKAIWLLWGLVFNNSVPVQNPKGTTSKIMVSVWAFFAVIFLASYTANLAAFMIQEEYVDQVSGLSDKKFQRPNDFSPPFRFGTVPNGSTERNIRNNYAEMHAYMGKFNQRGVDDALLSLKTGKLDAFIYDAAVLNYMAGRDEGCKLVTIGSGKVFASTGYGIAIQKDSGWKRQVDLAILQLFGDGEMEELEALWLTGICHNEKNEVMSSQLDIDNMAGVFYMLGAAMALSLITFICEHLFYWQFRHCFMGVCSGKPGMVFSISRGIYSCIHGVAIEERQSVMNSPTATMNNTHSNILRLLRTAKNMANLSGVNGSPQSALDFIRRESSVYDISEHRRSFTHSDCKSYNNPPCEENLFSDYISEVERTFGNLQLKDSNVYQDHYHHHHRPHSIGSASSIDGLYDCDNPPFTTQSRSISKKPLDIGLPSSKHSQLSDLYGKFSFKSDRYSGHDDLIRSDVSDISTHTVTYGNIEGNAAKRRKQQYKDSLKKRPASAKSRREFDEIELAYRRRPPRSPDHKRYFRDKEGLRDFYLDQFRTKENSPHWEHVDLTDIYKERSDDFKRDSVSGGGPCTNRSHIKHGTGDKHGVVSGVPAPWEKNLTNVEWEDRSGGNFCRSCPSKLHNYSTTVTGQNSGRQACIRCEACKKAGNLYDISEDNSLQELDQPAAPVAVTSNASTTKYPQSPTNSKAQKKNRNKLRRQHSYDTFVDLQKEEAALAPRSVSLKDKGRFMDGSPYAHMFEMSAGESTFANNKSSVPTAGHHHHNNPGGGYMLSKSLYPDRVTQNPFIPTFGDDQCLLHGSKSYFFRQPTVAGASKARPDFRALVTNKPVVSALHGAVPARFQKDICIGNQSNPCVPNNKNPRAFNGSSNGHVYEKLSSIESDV

Columns and labels:
NMDAR2A = NMDAR2A (Homo sapiens, UniProt Q12879); assay: [3H]MK-801 binding in NMDAR expressing HEK cell membranes (facilitation of NMDAR activation)
Procedure: (§1) Assays were conducted as described by Moskal et al., “GLYX-13: a monoclonal antibody-derived peptide that acts as an N-methyl-D-aspartate receptor modulator,” Neuropharmacology, 49, 1077-87, 2005. These studies were designed to determine if the test compounds act to facilitate NMDAR activation in NMDAR2A, NMDAR2B, NMDAR2C or NMDAR2D expressing HEK cell membranes as measured by increases in [^3H]MK-801 binding.
(§2) In the assay, 300 μg of NMDAR expressing HEK cell membrane extract protein was preincubated for 15 minutes at 25° C. in the presence of saturating concentrations of glutamate (50 μM) and varying concentrations of test compound (1×10^15M−1×10^−7M), or 1 mM glycine. Following the addition of 0.3 μCi of [^3H]MK-801 (22.5 Ci/mmol), reactions were again incubated for 15 minutes at 25° C. (nonequilibrium conditions). Bound and free [^3H]MK-801 were separated via rapid filtration using a Brandel apparatus.
(§3) In analyzing the data, the DPM (disintegrations per minute) of [^3H]MK-801 remaining on the filter were measured for each concentration of test compound or for 1 mM glycine. The DPM values for each concentration of a ligand (N=2) were averaged. The baseline value was determined from the best fit curve of the DPM values modeled using the GraphPad program and the log(agonist) vs. response (three parameters) algorithm was then subtracted from all points in the dataset. The % maximal [^3H]MK-801 binding was then calculated relative to that of 1 mM glycine: all baseline subtracted DPM values were divided by the average value for 1 mM glycine. The EC50 and % maximal activity were then obtained from the best fit curve of the % maximal [^3H]MK-801 binding data modelled using the GraphPad program and the log(agonist) vs. response (three parameters) algorithm.
(§4) The tables below summarize the results for the wild type NMDAR agonists NMDAR2A, NMDAR2B, NMDAR2C, and NMDAR2D, and whether the compound is not an agonist (−), is an agonist (+), or is a strong agonist (++), where column A is based on the % maximal [^3H]MK-801 binding relative to 1 mM glycine (−=0; <100%=+; and >100%=++); and column B is based on log EC50 values (0=−; ≥1×10^−9 M (e.g., −8)=+; and <1×10^−9 M (e.g., −10)=++).

NMDAR2B = NMDAR2B (Homo sapiens, UniProt Q13224); assay: as above
Procedure: as §1, §2, §3, §4

[1] = 50 μM glutamate, tested form: Na salt
[2] = read-out: B: log EC50 (converted), 50 μM glutamate, tested form: Na salt

A: % maximal [3H]MK-801 binding relative to 1 mM glycine (NMDAR2A; [1]): + (<100%=+)
EC50 (NMDAR2A; [2]): < 1 nM
A: % maximal [3H]MK-801 binding relative to 1 mM glycine (NMDAR2B; [1]): ++ (>100%=++)
EC50 (NMDAR2B; [2]): < 1 nM
SMILES: CC1CCC2(CC1)CN([C@@H](CO)C(=O)O)C2=O (stereo partly shown)
